pKd: −log10 of the molar value.
Assays:
Galectin-9 = Galectin-9 (Homo sapiens, UniProt O00182); assay: Competitive binding affinity to recombinant human galectin-9 C-terminal after 5 mins in presence of fluorescent probe 3,3'-dideoxy-3-[4-(fluorescein-5-yl-carbonylaminomethyl)-1H-1,2,3-triazol-1-yl]-3'-(3,5-dimethoxy-benzamido)-1,1'-sulfanediyl-di-beta-D-galactopyranoside by fluorescence polarization assay
Galectin-1 = Galectin-1 (Rattus norvegicus, UniProt P11762); assay: Competitive binding affinity to rat galectin-1 after 5 mins in presence of fluorescent probe by fluorescence polarization assay

Protein sequences, listed by entry. Tags and fused reporters are not part of them.
UniProt P11762, whole entry: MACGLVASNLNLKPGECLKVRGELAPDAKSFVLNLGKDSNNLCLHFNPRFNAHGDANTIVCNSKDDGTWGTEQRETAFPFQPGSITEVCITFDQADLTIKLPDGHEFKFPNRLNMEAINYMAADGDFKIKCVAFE

OC[C@H]1O[C@@H](S[C@@H]2O[C@H](CO)[C@H](O)[C@H](O)[C@H]2O)[C@H](O)[C@@H](O)[C@H]1O [THIODIGALACTOSIDE]
pKd (Galectin-9): 4.38 | pKd (Galectin-1): 4.62

— ChEMBL document CHEMBL4428056 (J Med Chem, 2016)
